Chains of the proteins cited; added tags and fusions are not shown. Lines headed by an entry give the natural chain unless they say otherwise; changes in a name come on top.
UniProt P04629: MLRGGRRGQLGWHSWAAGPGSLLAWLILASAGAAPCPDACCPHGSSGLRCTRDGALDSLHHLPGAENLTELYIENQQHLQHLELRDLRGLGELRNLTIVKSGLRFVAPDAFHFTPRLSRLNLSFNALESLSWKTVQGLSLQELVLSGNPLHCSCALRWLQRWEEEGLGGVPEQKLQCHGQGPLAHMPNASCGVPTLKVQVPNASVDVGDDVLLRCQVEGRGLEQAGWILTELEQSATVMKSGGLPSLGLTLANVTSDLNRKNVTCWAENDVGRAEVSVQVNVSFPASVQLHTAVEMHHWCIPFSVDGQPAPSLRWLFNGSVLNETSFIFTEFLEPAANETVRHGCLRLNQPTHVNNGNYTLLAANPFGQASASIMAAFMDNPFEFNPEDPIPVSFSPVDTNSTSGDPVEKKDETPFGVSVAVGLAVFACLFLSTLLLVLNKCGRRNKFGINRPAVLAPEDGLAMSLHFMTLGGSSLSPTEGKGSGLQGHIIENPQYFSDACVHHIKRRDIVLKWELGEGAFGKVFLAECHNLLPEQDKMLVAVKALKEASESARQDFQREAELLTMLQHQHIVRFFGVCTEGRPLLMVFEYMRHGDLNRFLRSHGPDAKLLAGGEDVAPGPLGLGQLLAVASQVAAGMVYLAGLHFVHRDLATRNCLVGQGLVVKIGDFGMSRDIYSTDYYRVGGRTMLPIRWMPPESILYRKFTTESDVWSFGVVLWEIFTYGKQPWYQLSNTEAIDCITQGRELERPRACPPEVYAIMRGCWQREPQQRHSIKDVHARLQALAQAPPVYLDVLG

In ChEMBL document CHEMBL5537184, “Discovery, Optimization, and Evaluation of Novel Pyridin-2(1H)-one Analogues as Potent TRK Inhibitors for Cancer Treatment” (J Med Chem, 2024):

Columns and labels:
[1] = molecular target: High affinity nerve growth factor receptor (Homo sapiens) (UniProt P04629); details: dose 100.0 nM
[2] = molecular target: T1, 1-phosphatidylinositol 4,5-bisphosphate phosphodiesterase gamma-1 (Homo sapiens) (UniProt P19174); details: KM12, dose 100-1000 nM, time 2.0 hrs
T1 sequence (whole entry): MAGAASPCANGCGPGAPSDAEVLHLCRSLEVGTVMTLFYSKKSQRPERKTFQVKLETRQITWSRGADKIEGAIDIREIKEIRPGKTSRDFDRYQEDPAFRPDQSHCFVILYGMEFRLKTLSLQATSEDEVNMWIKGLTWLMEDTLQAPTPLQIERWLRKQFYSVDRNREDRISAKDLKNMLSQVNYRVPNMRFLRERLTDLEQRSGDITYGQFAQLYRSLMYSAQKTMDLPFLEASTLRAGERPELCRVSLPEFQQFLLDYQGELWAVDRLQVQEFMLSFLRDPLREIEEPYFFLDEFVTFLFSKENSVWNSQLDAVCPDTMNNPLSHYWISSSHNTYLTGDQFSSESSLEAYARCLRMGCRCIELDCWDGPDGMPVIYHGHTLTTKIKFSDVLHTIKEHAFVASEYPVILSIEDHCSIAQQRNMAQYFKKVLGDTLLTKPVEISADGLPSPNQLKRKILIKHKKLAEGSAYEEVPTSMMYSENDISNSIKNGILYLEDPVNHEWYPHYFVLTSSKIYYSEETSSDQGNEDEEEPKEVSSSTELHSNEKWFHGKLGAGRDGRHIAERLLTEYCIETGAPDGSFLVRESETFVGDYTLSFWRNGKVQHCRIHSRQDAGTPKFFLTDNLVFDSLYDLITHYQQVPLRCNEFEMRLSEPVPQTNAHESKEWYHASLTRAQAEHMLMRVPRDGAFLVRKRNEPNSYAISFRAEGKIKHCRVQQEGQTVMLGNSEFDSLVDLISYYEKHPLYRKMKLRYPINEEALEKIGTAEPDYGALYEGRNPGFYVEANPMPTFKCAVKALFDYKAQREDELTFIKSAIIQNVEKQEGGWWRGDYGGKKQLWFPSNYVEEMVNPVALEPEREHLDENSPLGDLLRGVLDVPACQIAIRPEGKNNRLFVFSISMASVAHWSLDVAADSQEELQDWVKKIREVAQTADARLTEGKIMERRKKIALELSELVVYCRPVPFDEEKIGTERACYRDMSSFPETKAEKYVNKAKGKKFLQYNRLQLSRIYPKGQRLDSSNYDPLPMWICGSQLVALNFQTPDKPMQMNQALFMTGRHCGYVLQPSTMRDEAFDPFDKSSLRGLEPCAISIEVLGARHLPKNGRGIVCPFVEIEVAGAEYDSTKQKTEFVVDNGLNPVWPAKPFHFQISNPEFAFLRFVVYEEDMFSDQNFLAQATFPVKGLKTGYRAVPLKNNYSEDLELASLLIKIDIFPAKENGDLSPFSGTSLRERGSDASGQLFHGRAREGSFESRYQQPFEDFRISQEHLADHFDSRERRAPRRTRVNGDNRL

| SMILES | inhibition [1] [%] | inhibition [2] |
| --- | --- | --- |
| CNC(=O)c1cc(N[C@H](C)c2c(Cl)ccc(F)c2Cl)c[nH]c1=O | 7 | – |
| C[C@@H](Nc1c[nH]c(=O)c(C(=O)NCCN2CCOCC2)c1)c1c(Cl)ccc(F)c1Cl | -1.8 | – |
| C[C@@H](Nc1c[nH]c(=O)c(C(=O)Nc2cccc(F)c2)c1)c1c(Cl)ccc(F)c1Cl | 46 | – |
| C[C@@H](Nc1c[nH]c(=O)c(C(=O)Nc2ccc(C(C)(C)C)cc2)c1)c1c(Cl)ccc(F)c1Cl | 29.4 | – |
| C[C@@H](Nc1c[nH]c(=O)c(C(=O)NC2CCCCC2)c1)c1c(Cl)ccc(F)c1Cl | 16 | – |
| C[C@@H](Nc1c[nH]c(=O)c(C(=O)NC2CCN(C)CC2)c1)c1c(Cl)ccc(F)c1Cl | 9.4 | – |
| C[C@@H](Nc1c[nH]c(=O)c(C(=O)NCCCN2CCOCC2)c1)c1c(Cl)ccc(F)c1Cl | -8.6 | – |
| C[C@@H](Nc1c[nH]c(=O)c(C(=O)NC2CCOCC2)c1)c1c(Cl)ccc(F)c1Cl | 11.3 | – |
| C[C@@H](Nc1c[nH]c(=O)c(C(=O)Nc2ccc(CN3CCN(C)CC3)cc2)c1)c1c(Cl)ccc(F)c1Cl | – | Dose-Dependent Effect |
| C[C@@H](Nc1c[nH]c(=O)c(C(=O)NCc2ccccc2)c1)c1c(Cl)ccc(F)c1Cl | 30.6 | – |
| C[C@@H](Nc1cncc(C(=O)Nc2ccc(CN3CCN(C)CC3)cc2)c1)c1c(Cl)ccc(F)c1Cl | -0.1 | – |
| C[C@@H](Nc1c[nH]c(=O)c(C(=O)NC2CCCO2)c1)c1c(Cl)ccc(F)c1Cl (stereo partly drawn) | 7.4 | – |
| COc1ncc(N[C@H](C)c2c(Cl)ccc(F)c2Cl)cc1C(=O)Nc1ccc(CN2CCN(C)CC2)cc1 | 1.6 | – |
